The text below walks through data of US6500927B2 (priority 1998, dated 2002).

By UniProt entry, the sequences of proteins in these tests, tags left out. Residues count along the entry.
UniProt P42866, 1-438 isoform P42866-8: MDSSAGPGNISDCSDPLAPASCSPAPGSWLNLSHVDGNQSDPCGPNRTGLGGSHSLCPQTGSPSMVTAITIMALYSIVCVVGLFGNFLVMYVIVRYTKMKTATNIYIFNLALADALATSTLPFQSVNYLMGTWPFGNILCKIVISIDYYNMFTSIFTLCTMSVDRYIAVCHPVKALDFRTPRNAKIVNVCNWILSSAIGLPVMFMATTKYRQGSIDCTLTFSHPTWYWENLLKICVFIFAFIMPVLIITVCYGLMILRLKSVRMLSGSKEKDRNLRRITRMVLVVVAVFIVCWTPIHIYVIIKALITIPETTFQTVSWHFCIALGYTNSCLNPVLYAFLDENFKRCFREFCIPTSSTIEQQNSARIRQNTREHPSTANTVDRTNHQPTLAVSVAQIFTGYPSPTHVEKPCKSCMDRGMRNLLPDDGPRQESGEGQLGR
UniProt P42866, 1-393 isoform P42866-9: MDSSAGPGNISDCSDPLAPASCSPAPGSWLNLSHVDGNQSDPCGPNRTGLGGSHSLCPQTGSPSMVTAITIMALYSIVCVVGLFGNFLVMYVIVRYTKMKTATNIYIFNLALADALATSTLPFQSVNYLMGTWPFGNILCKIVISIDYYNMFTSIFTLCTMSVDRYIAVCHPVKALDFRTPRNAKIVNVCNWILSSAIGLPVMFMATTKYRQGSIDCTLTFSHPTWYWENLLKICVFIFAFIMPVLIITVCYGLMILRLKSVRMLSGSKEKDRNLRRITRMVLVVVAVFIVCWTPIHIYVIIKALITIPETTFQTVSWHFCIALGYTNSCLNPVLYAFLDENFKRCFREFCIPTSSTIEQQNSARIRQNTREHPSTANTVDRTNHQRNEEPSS

Test [1] has as its target MOR-1C (Mus musculus, UniProt P42866). The following applies: MOR-1C vs MOR-1 or MOR-1E.
Test [2] deals with T1, MOR-1D (Mus musculus, UniProt P42866).
T1 construct: The cDNA fragments containing the full length MOR-1 or the MOR-1 variants in pCRII-ToPo were subcloned into pcDNA3.1; expressed in transfected cells
In kind it is binding. The following applies: MOR-1D vs MOR-1 or MOR-1E.

With dynorphin A, the “Affinity for MOR-1C compared with MOR-1 or MOR-1E” value in test [1] was “significantly higher affinity”. Also, in test [2], the “Affinity for MOR-1D compared with MOR-1 or MOR-1E” value is given as “significantly higher affinity”.
